In the test the target is β-secretase (Homo sapiens, UniProt P56817). The test is described as follows: MBP C125 assay of peptide inhibitors. As to conditions: read-out: IC50 Group, heptamer peptides.

Sequences of proteins named here, by UniProt entry; tags and fusion partners are left off. Residues count along the entry.
UniProt P56817, 46-501 limits assumed: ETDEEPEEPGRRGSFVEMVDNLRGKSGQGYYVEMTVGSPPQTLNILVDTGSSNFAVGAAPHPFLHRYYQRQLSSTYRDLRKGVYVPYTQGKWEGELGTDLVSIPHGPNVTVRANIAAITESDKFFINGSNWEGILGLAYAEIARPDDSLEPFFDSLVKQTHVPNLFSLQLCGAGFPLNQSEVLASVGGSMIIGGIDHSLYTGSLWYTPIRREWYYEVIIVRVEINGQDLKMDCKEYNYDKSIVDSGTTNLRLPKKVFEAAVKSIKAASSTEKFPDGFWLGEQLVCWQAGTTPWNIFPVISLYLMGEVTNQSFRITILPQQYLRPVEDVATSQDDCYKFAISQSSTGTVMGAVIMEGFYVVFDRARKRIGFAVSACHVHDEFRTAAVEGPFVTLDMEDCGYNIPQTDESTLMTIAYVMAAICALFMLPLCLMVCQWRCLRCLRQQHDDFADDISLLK

pIC50: −log10 of the molar value.

`CCCC[C@H](NC(=O)[C@@H](NC(C)=O)C(C)C)C(=O)N[C@@H](CC(C)C)[C@@H](O)CC(=O)N[C@H](C(=O)N[C@@H](C)C(=O)N[C@@H](CCC(=O)O)C(=O)N[C@@H](Cc1ccccc1)C(=O)O)C(C)C`: the negative logarithm of the IC50 (pIC50) – broadly, −log10 of the IC50, conventionally taken in molar units – is over 6.00.
